Experimental data from paper PMC7601400.

Protein sequences, listed by entry. Tags and fused reporters are not part of them. Lines headed by an entry give the natural chain unless they say otherwise; changes in a name come on top.
UniProt P22629: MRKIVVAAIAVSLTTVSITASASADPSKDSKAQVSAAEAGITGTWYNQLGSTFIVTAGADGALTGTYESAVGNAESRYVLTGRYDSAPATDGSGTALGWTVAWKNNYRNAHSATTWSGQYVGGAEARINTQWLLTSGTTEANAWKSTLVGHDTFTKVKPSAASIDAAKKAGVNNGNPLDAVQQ

Biological target: Streptavidin (UniProt P22629)
Assay: diffraction-based leaky waveguide (label-free optical biosensor); streptavidin held in a photopatterned chitosan film via PC-biotin (unexposed strips high loading, exposed strips low loading); PAB 0.07 mg/mL in 100 mM HEPES pH 7.4 pumped at 200 µL/min, 20 °C; shift in resonance angle fitted to an exponential rise

## protein A–biotin (PAB) from Staphylococcus aureus (from UniProt P38507 37-477) (natural protein)
  exponent of the exponential rise of the angle shift (exposed regions): 0.00174 s⁻¹
  exponent of the exponential rise of the angle shift (unexposed regions): 0.00486 s⁻¹
